Test results: PMC10810714, “Antiretroviral Drug Exposure and Response in Obese and Morbidly Obese People With Human Immunodeficiency Virus (HIV): A Study Combining Modelling and Swiss HIV Cohort Data” (Clinical Infectious Diseases: An Official Publication of …, 2023)

Assays:
[1] = Observed pharmacokinetics of antiretrovirals in nonobese and obese individuals (SHCS therapeutic drug monitoring data and literature studies, noncompartmental analysis); settings: observed data
Description: We took several steps to analyse the impact of obesity on the ARVs exposure and response. First, we implemented our in-house PBPK model with our recently published virtual White obese population to simulate the pharmacokinetics of ARVs in nonobese and obese individuals. Next, we verified the simulations against the TDM data collected during the follow-up visits of the SHCS (multiple drug levels per individual were allowed [more information on the SHCS in the homonymous section in the Supplementary Material]). We then applied the verified model to extrapolate the pharmacokinetics across different obesity classes. Finally, the clinical relevance of obesity-related changes on drug response was evaluated by analyzing HIV viral load and the corresponding TDM values in obese and nonobese individuals in the SHCS. […]
The Swiss HIV Cohort Study (SHCS) is an ongoing, nationwide, multicenter, clinic-based prospective cohort study in Switzerland with continuous enrollment and follow-up (twice a year) of people with HIV (PWH). Socio-demographic, clinical and laboratory data are recorded in detail. […] All available TDM data for each evaluated antiretroviral drug were extracted from the SHCS database representing 6210 and 575 data points for the verification of the simulations in non-obese and obese individuals, respectively.

[2] = standard oral dose at steady state, GM (mean for etravirine, emtricitabine, tenofovir), literature studies only, ref Supplementary Table 2 [9-16, 21-24]; cited from earlier work
[3] = PBPK model virtual trials matched to the observed studies (model verification, nonobese vs obese); set-up: species or system human; settings: obese individuals
Description: We took several steps to analyse the impact of obesity on the ARVs exposure and response. First, we implemented our in-house PBPK model with our recently published virtual White obese population to simulate the pharmacokinetics of ARVs in nonobese and obese individuals. Next, we verified the simulations against the TDM data collected during the follow-up visits of the SHCS (multiple drug levels per individual were allowed [more information on the SHCS in the homonymous section in the Supplementary Material]). We then applied the verified model to extrapolate the pharmacokinetics across different obesity classes. Finally, the clinical relevance of obesity-related changes on drug response was evaluated by analyzing HIV viral load and the corresponding TDM values in obese and nonobese individuals in the SHCS.
All ARV drug models, except for doravirine (Supplementary Table 1), were previously developed and verified to predict the pharmacokinetics in healthy and elderly PWH [6, 12]. […] The TDM data were excluded if the participant’s age was younger than 20 or older than 50 years to avoid the age-related confounding effect on the pharmacokinetics, if a nonstandard ARV dosage was used, and if concurrent medications with inhibitory or inducing effects were used. […]

With C[C@@H]1CCO[C@H]2Cn3cc(C(=O)NCc4ccc(F)cc4F)c(=O)c(O)c3C(=O)N12 [Dolutegravir, dolutegravir] the “Cτ, Ratio Obese/Nonobese, Observed” value [1] was 1.06.

In the case of Cc1cc(C#N)cc(C)c1Oc1nc(Nc2ccc(C#N)cc2)nc(N)c1Br [Etravirine, etravirine], the “t1/2, observed, nonobese individuals” value [2] is given as 12.8 h.

In the case of O=C1Nc2ccc(Cl)cc2[C@@](C#CC2CC2)(C(F)(F)F)O1 [Efavirenz, efavirenz], the “Cmax, Ratio Predicted/Observed, Obese” value [3] is reported as 1.14.
